Several values for one entry are separate records, joined by “and”; a condition that tells them apart may be missing. Equal entries are not always repeated.
Assays:
[1] = test system: frontal cortex spectral power; test: Quantitative EEG (qEEG); details: 0.3, 1, 3, 10 mg/kg PO, 1–2 h post dosing
human CAR = human CAR (Homo sapiens, UniProt Q14994); test: Reporter gene activation study; details: 10 μM
human PXR = human PXR (Homo sapiens, UniProt O75469); test: Reporter gene activation study; details: 4 µM
[2] = In vitro plasma protein binding; details: average across test concentrations
[3] = Binding in plasma, equilibrium dialysis; details: fraction unbound
[4] = Metabolic stability in liver microsomes; details: for clearance / intrinsic clearance: up to 1 μM; for CLhep: microsomes
[5] = Rat IV plasma:brain level (PBL) cassette; details: SD rat, 0.2 mg/kg IV, 0.25 h
[6] = test system: amphetamine-induced hyperlocomotion; test: Amphetamine-induced hyperlocomotion (AHL); details: for brain:plasma mean Kp / brain:plasma mean Kp,uu / mean C brain / mean C brain,u / mean C plasma / mean C plasma,u: 1.5 h
[7] = Gastro-Plus predicted parameters for PBPK
[8] = Human PK and dose prediction, IVIVE approach
human M4 (hM4) = human M4 (hM4) (Homo sapiens, UniProt P08173); test: Calcium mobilization assay, hM4/Gqi5-CHO cells, EC20 acetylcholine
P-gp (MDR1) = P-gp (MDR1) (Homo sapiens, UniProt P08183); test: Permeability and active transport in MDR1-transfected MDCKII cells
CYP2B6 = test: CYP induction, gene expression (mRNA) in cryopreserved human hepatocytes
CYP3A4 = test: as above
cytochrome P450 enzymes = test: Cytochrome P450 inhibition (direct and time-dependent), pooled human liver microsomes; details: read-out: CYP inhibition IC50's; all CYPs tested

By UniProt entry, the sequences of proteins in these tests, tags left out. Where a name states a change or a piece, a line headed by the entry shows the natural chain unless it says otherwise.
UniProt Q14994: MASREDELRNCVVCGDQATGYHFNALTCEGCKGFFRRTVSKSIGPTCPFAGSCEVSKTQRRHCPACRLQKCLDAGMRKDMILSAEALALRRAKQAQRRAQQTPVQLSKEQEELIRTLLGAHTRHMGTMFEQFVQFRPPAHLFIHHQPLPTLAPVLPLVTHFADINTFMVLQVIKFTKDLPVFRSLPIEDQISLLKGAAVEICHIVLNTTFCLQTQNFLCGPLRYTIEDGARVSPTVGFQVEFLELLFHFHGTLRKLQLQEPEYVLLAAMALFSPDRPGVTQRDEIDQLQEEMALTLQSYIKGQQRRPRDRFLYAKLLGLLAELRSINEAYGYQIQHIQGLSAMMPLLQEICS
UniProt O75469: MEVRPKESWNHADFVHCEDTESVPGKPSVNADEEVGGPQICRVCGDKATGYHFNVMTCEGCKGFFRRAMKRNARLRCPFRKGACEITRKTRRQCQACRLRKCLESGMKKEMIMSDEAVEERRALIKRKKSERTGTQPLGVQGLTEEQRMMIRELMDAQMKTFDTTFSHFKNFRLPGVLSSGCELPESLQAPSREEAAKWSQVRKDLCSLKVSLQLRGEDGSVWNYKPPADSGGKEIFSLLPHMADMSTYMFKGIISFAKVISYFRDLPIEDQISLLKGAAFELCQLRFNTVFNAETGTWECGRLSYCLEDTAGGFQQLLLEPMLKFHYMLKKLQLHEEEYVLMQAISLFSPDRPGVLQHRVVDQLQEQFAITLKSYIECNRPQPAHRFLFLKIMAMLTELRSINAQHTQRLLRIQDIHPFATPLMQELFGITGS
UniProt P08173, whole entry, looked up: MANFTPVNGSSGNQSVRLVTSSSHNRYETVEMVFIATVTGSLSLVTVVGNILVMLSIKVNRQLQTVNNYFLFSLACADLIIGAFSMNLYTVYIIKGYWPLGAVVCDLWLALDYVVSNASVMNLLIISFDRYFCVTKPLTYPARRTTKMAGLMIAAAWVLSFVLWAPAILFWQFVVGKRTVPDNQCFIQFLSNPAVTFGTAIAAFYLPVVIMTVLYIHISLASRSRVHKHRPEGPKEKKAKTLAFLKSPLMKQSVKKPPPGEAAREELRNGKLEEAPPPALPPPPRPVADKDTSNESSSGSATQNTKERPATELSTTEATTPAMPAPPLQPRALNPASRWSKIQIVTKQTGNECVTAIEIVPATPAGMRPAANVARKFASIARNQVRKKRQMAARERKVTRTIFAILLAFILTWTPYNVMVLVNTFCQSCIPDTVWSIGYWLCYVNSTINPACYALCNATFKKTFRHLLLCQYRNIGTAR
UniProt P08183, whole entry, looked up: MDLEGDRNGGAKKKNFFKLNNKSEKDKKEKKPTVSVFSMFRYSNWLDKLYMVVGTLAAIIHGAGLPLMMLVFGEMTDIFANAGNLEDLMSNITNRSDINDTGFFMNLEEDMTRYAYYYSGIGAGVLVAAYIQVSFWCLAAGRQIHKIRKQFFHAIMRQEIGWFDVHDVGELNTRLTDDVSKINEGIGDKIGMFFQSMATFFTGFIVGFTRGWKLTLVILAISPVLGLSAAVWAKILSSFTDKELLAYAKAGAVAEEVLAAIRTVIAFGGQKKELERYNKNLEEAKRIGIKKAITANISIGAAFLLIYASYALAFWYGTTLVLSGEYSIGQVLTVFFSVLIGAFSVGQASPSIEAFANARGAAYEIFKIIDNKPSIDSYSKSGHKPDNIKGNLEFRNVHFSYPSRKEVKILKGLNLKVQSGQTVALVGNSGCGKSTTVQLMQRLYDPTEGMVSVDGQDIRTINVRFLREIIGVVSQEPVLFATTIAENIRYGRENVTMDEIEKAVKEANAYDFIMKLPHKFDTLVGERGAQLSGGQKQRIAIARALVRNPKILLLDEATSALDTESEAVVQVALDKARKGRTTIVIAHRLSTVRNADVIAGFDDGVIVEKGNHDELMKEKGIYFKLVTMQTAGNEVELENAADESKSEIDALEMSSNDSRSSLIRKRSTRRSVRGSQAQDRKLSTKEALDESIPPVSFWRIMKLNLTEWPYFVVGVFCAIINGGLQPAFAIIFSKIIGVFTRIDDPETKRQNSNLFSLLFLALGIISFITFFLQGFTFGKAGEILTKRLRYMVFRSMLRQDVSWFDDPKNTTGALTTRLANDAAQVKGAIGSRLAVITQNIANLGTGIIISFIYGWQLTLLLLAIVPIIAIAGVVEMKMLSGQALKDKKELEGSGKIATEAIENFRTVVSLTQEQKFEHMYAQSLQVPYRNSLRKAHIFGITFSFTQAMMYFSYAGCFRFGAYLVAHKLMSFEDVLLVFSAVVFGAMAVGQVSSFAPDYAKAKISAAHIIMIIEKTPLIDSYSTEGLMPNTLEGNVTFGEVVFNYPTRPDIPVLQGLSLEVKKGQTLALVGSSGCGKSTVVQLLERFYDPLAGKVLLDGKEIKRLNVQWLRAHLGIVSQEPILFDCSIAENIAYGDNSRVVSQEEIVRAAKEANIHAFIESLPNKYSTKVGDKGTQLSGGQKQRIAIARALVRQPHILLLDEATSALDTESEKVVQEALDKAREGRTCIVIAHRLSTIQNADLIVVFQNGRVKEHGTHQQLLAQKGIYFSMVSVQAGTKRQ

## Cc1nnc2sc3c(NCc4ccc(C(C)(C)O)cc4)ncnc3c2c1C
[1]
  effect on qEEG power during wake: robust, dose-dependent increase in high gamma power
Thermodynamic solubility; FaSSIF
  Thermodynamic solubility, FaSSIF: 7.7 µg/mL
Thermodynamic solubility; FeSSIF
  Thermodynamic solubility, FeSSIF: 37 µg/mL
Thermodynamic solubility; SGF
  Thermodynamic solubility, SGF: 130 µg/mL
Thermodynamic solubility; first of four values (pH7.4 per footnote b186)
  Thermodynamic solubility: 1.5 µg/mL
Human CAR
  CAR activation (tendency): 1.8 fold of DMSO control
Human PXR
  PXR activation: 2.0 fold of DMSO control
[2]; dog
  In vitro fup: 3.8 % free
[2]; human
  In vitro fup: 0.42 % free
[2]; minipig
  In vitro fup: 1.63 % free
[2]; monkey
  In vitro fup: 0.76 % free
[2]; rat
  In vitro fup: 0.78 % free
[3]
  human fu,plasma: 0.007
  rat fu,plasma: 0.02
[4]; NHP microsomes
  clearance: 29.0 mL/min/kg
[4]; dog microsomes
  clearance: 15.5 mL/min/kg
[4]; human liver microsomes
  intrinsic clearance: 5.17 mL/min/kg
[4]; dog, 0.1 µM
  CLhep: 23.7 ± 0.3 mL/min/kg
[4]; dog, 0.3 µM
  CLhep: 19.3 ± 0.1 mL/min/kg
[4]; dog, 1 µM
  CLhep: 15.5 ± 0.2 mL/min/kg
[4]; human, 0.1 µM
  CLhep: 5.17 ± 0.20 mL/min/kg
[4]; human, 0.3 µM
  CLhep: 6.17 ± 0.11 mL/min/kg
[4]; human, 1 µM
  CLhep: 5.17 ± 0.10 mL/min/kg
[4]; monkey, 0.1 µM
  CLhep: 30.0 ± 0.9 mL/min/kg
[4]; monkey, 0.3 µM
  CLhep: 29.7 ± 0.5 mL/min/kg
[4]; monkey, 1 µM
  CLhep: 29.0 ± 0.4 mL/min/kg
[4]; rat, 0.1 µM
  CLhep: 35.8 ± 0.1 mL/min/kg
[4]; rat, 0.3 µM
  CLhep: 28.8 ± 0.3 mL/min/kg
[4]; rat, 1 µM
  CLhep: 25.2 ± 0.3 mL/min/kg
[4]; rat liver microsomes
  intrinsic clearance: 35.8 mL/min/kg
[5]
  Kp,brain:plasma: 0.55
  Kp,uu,brain:plasma: 0.41
[6]; 0.1 mg/kg PO
  mean reversal of AHL: 8.1%
  brain:plasma mean Kp: 0.26
  brain:plasma mean Kp,uu: 0.18
  mean C brain: 0.05 µM
  mean C brain,u: 0.71 nM
  mean C plasma: 0.19 µM
  mean C plasma,u: 4.03 nM
[6]; 0.3 mg/kg PO
  mean reversal of AHL: 33%
  brain:plasma mean Kp: 0.32
  brain:plasma mean Kp,uu: 0.21
  mean C brain: 0.25 µM
  mean C brain,u: 3.44 nM
  mean C plasma: 0.78 µM
  mean C plasma,u: 16.3 nM
[6]; 0.56 mg/kg PO
  mean reversal of AHL: 26%
  brain:plasma mean Kp: 0.29
  brain:plasma mean Kp,uu: 0.19
  mean C brain: 0.33 µM
  mean C brain,u: 4.65 nM
  mean C plasma: 1.14 µM
  mean C plasma,u: 23.9 nM
[6]; 1 mg/kg PO
  mean reversal of AHL: 51%
  brain:plasma mean Kp: 0.34
  brain:plasma mean Kp,uu: 0.23
  mean C brain: 0.68 µM
  mean C brain,u: 9.58 nM
  mean C plasma: 1.99 µM
  mean C plasma,u: 41.8 nM
[6]; 3 mg/kg PO
  brain:plasma mean Kp: 0.3
  brain:plasma mean Kp,uu: 0.2
  mean C brain: 2.07 µM
  mean C brain,u: 29.0 nM
  mean C plasma: 6.89 µM
  mean C plasma,u: 145 nM
[6]; 10 mg/kg PO
  mean reversal of AHL: 63%
  brain:plasma mean Kp: 0.34
  brain:plasma mean Kp,uu: 0.23
  mean C brain: 4.90 µM
  mean C plasma: 14.2 µM
  mean C plasma,u: 299 nM
[6]; 10 mg/kg PO, listed as VU6008055
  mean C brain,u: 69 nM and 68.6 nM
[6]; PO, 30 min pretreatment, rat
  MED, AHL: 0.3 mg/kg
[6]; single acute dose 3 mg/kg p.o., listed as VU6008055, 3 mg/kg
  Mean % Reversal of AHL: 45.7%
[7]; dog
  Predicted plasma CLhepatic, metabolic: 11.7 mL/min/kg
[7]; human
  Predicted plasma CLhepatic, metabolic: 0.767 mL/min/kg
[7]; minipig
  Predicted plasma CLhepatic, metabolic: 3.17 mL/min/kg
[7]; monkey
  Predicted plasma CLhepatic, metabolic: 3.17 mL/min/kg
[7]; rat
  Predicted plasma CLhepatic, metabolic: 3.17 mL/min/kg
[8]; IVIVE
  predicted Oral Fabs: ~ 50%
  predicted human CLhep: 0.77 mL/min/kg
  predicted human Vss: 0.44 L/kg
  predicted human oral bioavailability (% F): 48%
  predicted human t1/2: 6.6 h
  predicted plasma CLhep: 0.767 mL/min/kg
[8]; IVIVE and PBPK, listed as VU6008055
  human target total plasma conc: 4200 ng/mL and 11162 nM
[8]; IVIVE, BID
  predicted twice daily dose: 640 mg
[8]; IVIVE, QD
  predicted once daily dose: 820 mg
Human M4 (hM4); across species
  species differences in M4 activity: < 4 fold
Human M4 (hM4); normalized to 100 μM acetylcholine
  %AChMax: 91 % AChMax
P-gp (MDR1); 0.5 µM, without P-gp inhibitor
  Papp B-A: 5.0 [4.1-6.0] cm/s x 10-6
P-gp (MDR1); PBPK input, Table S16
  MDCK-MDR1 A2B Papp: 9 ×10⁻⁶ cm/s
P-gp (MDR1); without inhibitor, unit inferred
  Papp A-B: 6.4 ×10⁻⁶ cm/s
CYP2B6; 0.1 µM, donor 1
  CYP2B6 gene expression: 0.97 ± 0.10 fold of DMSO control
CYP2B6; 0.1 µM, donor 2
  CYP2B6 gene expression: 0.86 ± 0.13 fold of DMSO control
CYP2B6; 0.1 µM, donor 3
  CYP2B6 gene expression: 1.54 ± 0.20 fold of DMSO control
CYP2B6; 0.3 µM, donor 1
  CYP2B6 gene expression: 1.36 ± 0.46 fold of DMSO control
CYP2B6; 0.3 µM, donor 2
  CYP2B6 gene expression: 0.82 ± 0.13 fold of DMSO control
CYP2B6; 0.3 µM, donor 3
  CYP2B6 gene expression: 1.73 ± 0.33 fold of DMSO control
CYP2B6; 1 µM, donor 1
  CYP2B6 gene expression: 1.45 ± 0.35 fold of DMSO control
CYP2B6; 1 µM, donor 2
  CYP2B6 gene expression: 0.88 ± 0.14 fold of DMSO control
CYP2B6; 1 µM, donor 3
  CYP2B6 gene expression: 1.51 ± 0.04 fold of DMSO control
CYP2B6; 3 µM, donor 1
  CYP2B6 gene expression: 1.41 ± 0.32 fold of DMSO control
CYP2B6; 3 µM, donor 2
  CYP2B6 gene expression: 0.75 ± 0.05 fold of DMSO control
CYP2B6; 3 µM, donor 3
  CYP2B6 gene expression: 2.43 ± 0.09 fold of DMSO control
CYP2B6; 10 µM, donor 2
  CYP2B6 gene expression: 0.43 ± 0.03 fold of DMSO control
CYP2B6; 10 µM, donor 3
  CYP2B6 gene expression: 1.93 ± 0.07 fold of DMSO control
CYP3A4; 0.1 µM, donor 1
  CYP3A4 gene expression: 0.88 ± 0.03 fold of DMSO control
CYP3A4; 0.1 µM, donor 2
  CYP3A4 gene expression: 1.28 ± 0.10 fold of DMSO control
CYP3A4; 0.1 µM, donor 3
  CYP3A4 gene expression: 2.27 ± 0.50 fold of DMSO control
CYP3A4; 0.3 µM, donor 1
  CYP3A4 gene expression: 1.53 ± 0.80 fold of DMSO control
CYP3A4; 0.3 µM, donor 2
  CYP3A4 gene expression: 1.32 ± 0.14 fold of DMSO control
CYP3A4; 0.3 µM, donor 3
  CYP3A4 gene expression: 1.73 ± 0.32 fold of DMSO control
CYP3A4; 1 µM, donor 1
  CYP3A4 gene expression: 1.40 ± 0.75 fold of DMSO control
CYP3A4; 1 µM, donor 2
  CYP3A4 gene expression: 1.46 ± 0.05 fold of DMSO control
CYP3A4; 1 µM, donor 3
  CYP3A4 gene expression: 1.75 ± 0.17 fold of DMSO control
CYP3A4; 3 µM, donor 1
  CYP3A4 gene expression: 1.93 ± 0.50 fold of DMSO control
CYP3A4; 3 µM, donor 2
  CYP3A4 gene expression: 1.41 ± 0.13 fold of DMSO control
CYP3A4; 3 µM, donor 3
  CYP3A4 gene expression: 3.16 ± 0.26 fold of DMSO control
CYP3A4; 10 µM, donor 1
  CYP3A4 gene expression: 3.13 ± 0.31 fold of DMSO control
CYP3A4; 10 µM, donor 2
  CYP3A4 gene expression: 1.17 ± 0.05 fold of DMSO control
CYP3A4; 10 µM, donor 3
  CYP3A4 gene expression: 2.41 ± 0.05 fold of DMSO control
Cytochrome P450 enzymes
  IC50: ≥ 15 µM
